Experimental data from patent publication US20180008518A1, “MINERALIZATION FLUORIDE COMPOSITIONS” (published 2018).

Assay: Saliva post rinse calcium, inorganic phosphate, fluoride and monofluorophosphate contents

calcium monofluorophosphate
Fate of the fluoride species in the oral cavity: remained as monofluorophosphate
